Several values for one entry are separate records, joined by “and”; a condition that tells them apart may be missing. Equal entries are not always repeated.
Key:
[1] = In vitro stability in rat blood; details: 37° C., pH 7.4
[2] = target: cloned human muscarinic receptor subtype M3 (Homo sapiens, UniProt P20309); assay: Receptor binding, [3H]NMS, cloned human muscarinic receptor M3; details: for receptor binding affinity pKi, M3: mean ± SD of 3 experiments; for Hill slope, M3: numbers in parentheses
[3] = In vitro stability in rat plasma; details: 37° C., pH 7.4
[4] = system: cloned human muscarinic receptor subtypes M1-M4; assay: Receptor binding at cloned human muscarinic receptors, values stated across subtypes (ranges, M3/M2 selectivity)
[5] = target: cloned human muscarinic receptor subtype M1 (Homo sapiens, UniProt P11229); assay: Receptor binding, [3H]NMS, cloned human muscarinic receptor M1; details: for receptor binding affinity pKi, M1: mean ± SD of 3 experiments; for Hill slope, M1: numbers in parentheses
[6] = target: cloned human muscarinic receptor subtype M4 (Homo sapiens, UniProt P08173); assay: Receptor binding, [3H]NMS, cloned human muscarinic receptor M4; details: for receptor binding affinity pKi, M4: mean ± SD of 3 experiments; for Hill slope, M4: numbers in parentheses
rabbit eyes (pupil size) [7] = assay: Mydriatic effect of soft glycopyrrolates in rabbit eyes; parameters: AUC^eff(0-144 h): unit not given beside the values; details: for Rmax (%): 100 μl topical, % change in pupil size at 1 h; for duration of mydriatic activity: pharmacodynamically equipotent doses
[8] = target: cloned human muscarinic receptor subtype M2 (Homo sapiens, UniProt P08172); assay: Receptor binding, [3H]NMS, cloned human muscarinic receptor M2; details: for receptor binding affinity pKi, M2: mean ± SD of 3 experiments; for Hill slope, M2: numbers in parentheses
rabbit eyes (pupil size) [9] = assay: In vivo mydriatic studies of zwitterionic isomers in rabbit eyes; parameters: AUC^eff0-168 h: unit not given beside the values; details: for Rmax (%): 0.1 mL topical, maximum % change in pupil size
[10] = system: guinea pig ileum (M3 muscarinic receptors); assay: Guinea pig ileum contraction assay, pA2 against carbachol; details: carbachol as agonist, 4-6 strips, mean ± SD
[11] = target: muscarinic receptors (mainly M1) of rat brain cortex membranes (Rattus norvegicus, UniProt P08482); assay: Receptor binding, [3H]QNB, rat cortical membrane preparation; details: Table 8; for Ki: read-out: Ki (nM), Average ± SD, [3H]QNB, rat cortical membranes

Amino acid sequences for entries named in this document (tags omitted). A change or cut given only in a name is not applied to a line headed by its entry.
UniProt P20309, whole entry, looked up: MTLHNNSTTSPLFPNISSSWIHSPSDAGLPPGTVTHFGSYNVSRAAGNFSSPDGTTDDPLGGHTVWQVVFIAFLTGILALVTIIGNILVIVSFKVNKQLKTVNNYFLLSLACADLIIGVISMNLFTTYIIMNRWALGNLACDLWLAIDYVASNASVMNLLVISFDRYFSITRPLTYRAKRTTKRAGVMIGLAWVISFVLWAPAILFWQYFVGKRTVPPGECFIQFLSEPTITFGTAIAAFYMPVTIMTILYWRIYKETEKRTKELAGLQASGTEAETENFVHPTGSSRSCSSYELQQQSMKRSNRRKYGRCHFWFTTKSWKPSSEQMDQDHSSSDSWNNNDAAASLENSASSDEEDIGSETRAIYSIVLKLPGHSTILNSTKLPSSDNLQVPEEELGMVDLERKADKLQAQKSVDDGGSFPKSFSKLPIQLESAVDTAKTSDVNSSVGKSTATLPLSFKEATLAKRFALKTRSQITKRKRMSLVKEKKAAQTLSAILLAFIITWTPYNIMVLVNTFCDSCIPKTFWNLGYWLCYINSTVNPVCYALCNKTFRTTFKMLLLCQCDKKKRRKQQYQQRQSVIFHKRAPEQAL
UniProt P11229: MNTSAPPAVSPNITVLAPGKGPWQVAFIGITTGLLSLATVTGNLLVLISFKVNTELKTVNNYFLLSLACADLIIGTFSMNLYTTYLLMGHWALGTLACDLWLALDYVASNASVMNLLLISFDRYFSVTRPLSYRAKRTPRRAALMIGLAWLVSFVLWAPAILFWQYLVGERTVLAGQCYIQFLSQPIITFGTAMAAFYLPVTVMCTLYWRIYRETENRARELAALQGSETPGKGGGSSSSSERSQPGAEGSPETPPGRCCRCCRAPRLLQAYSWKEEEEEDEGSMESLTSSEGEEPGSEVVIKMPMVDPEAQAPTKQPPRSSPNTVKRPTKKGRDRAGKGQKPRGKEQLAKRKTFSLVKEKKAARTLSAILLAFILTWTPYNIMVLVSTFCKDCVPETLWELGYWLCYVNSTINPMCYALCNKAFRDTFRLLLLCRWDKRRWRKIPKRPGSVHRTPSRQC
UniProt P08173, whole entry, looked up: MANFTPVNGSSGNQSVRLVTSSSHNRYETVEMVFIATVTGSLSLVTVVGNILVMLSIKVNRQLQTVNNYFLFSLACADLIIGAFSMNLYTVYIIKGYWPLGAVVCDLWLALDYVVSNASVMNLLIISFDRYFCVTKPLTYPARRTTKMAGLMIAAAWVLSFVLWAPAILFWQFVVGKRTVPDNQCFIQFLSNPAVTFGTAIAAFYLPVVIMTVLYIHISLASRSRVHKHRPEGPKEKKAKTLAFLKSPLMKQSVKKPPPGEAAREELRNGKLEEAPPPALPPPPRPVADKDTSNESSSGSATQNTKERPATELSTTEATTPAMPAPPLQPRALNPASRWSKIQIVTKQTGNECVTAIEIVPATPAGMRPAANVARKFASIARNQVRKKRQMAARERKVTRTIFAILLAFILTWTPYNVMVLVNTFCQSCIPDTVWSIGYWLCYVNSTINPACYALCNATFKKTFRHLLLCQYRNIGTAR
UniProt P08172, whole entry, looked up: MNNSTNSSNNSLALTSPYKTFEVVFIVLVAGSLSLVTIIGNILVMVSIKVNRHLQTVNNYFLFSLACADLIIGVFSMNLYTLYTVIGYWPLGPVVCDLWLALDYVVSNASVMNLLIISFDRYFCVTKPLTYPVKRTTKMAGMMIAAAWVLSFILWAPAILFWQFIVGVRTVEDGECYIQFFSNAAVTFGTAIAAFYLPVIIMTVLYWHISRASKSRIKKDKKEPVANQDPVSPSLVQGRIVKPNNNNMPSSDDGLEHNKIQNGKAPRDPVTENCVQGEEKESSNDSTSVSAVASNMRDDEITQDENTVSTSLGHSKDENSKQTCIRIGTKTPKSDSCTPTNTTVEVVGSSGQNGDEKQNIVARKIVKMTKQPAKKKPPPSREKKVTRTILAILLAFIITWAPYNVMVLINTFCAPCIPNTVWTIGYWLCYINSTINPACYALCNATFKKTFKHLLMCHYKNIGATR
UniProt P08482: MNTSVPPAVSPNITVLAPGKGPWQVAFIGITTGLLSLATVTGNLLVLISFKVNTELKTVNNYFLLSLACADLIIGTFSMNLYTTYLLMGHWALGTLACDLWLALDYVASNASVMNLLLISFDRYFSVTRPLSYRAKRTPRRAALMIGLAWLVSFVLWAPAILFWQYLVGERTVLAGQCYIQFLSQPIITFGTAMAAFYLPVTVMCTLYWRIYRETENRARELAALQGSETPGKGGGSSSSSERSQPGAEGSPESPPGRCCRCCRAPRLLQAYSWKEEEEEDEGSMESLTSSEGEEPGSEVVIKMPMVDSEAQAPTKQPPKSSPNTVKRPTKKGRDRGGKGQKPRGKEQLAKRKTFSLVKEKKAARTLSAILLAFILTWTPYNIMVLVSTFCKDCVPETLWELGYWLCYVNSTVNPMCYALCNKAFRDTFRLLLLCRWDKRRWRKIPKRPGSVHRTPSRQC

Row | SMILES | half-life t1/2, min [1] | pseudo-first-order rate constant k × 10^−3, min^−1 [1] | receptor binding affinity pKi, M3 [2] | Hill slope, M3 [2] | half-life t1/2, min [3] | pseudo-first-order rate constant k × 10^−3, min^−1 [3] | Selectivity M3/M2 (affinity ratio) [4] | receptor binding affinity pKi, M1 [5] | Hill slope, M1 [5] | receptor binding affinity pKi, M4 [6] | Hill slope, M4 [6] | AUC^eff(0-144 h) (rabbit eyes (pupil size) [7]; conc. 0.5%) | Rmax (%) (rabbit eyes (pupil size) [7]; conc. 0.5%) | AUC^eff(0-144 h) (rabbit eyes (pupil size) [7]; conc. 1%) | Rmax (%) (rabbit eyes (pupil size) [7]; conc. 1%) | receptor binding affinity pKi, M2 [8] | AUC^eff0-168 h (rabbit eyes (pupil size) [9]; conc. 0.1%) | Rmax (%) (rabbit eyes (pupil size) [9]; conc. 0.1%) | Hill slope, M2 [8] | other results
1 | COC(=O)C[N+]1(C)CCC(OC(=O)C(O)(c2ccccc2)C2CCCC2)C1.[Br-] (racemic) | 57 min | 12.3 ± 1.3 × 10^−3 min^−1 | 7.80 ± 0.10 | (1.17 ± 0.18) | 19.5 min | 36.4 ± 5.0 × 10^−3 min^−1 | 1.0 ± 0.0 times | 7.91 ± 0.05 | (1.02 ± 0.12) | 8.29 ± 0.19 | (1.12 ± 0.05) | 185 ± 35 | 45.83 ± 4.81% | 467 ± 114 | 59.58 ± 15.72% | 7.79 ± 0.11 | – | – | – | –
2 | C[N@@+]1(CC(=O)[O-])CC[C@@H](OC(=O)[C@](O)(c2ccccc2)C2CCCC2)C1 | – | – | 6.95 ± 0.04 | (1.06 ± 0.04) | – | – | 3.5 ± 0.2 times | 7.04 ± 0.09 | (0.97 ± 0.13) | 7.00 ± 0.05 | (0.93 ± 0.01) | – | – | – | – | 6.43 ± 0.07 | 89 ± 50 | 24.40 ± 8.33% | (0.85 ± 0.21) | –
3 | C[N@+]1(CC(=O)[O-])CC[C@H](OC(=O)[C@@](O)(c2ccccc2)C2CCCC2)C1 | – | – | 5.61 ± 0.09 | (1.03 ± 0.01) | – | – | 1.0 ± 0.2 times | 5.84 ± 0.06 | (1.13 ± 0.10) | 5.85 ± 0.05 | (0.95 ± 0.18) | – | – | – | – | 5.61 ± 0.00 | 13 ± 15 | 3.87 ± 4.49% | (1.20 ± 0.02) | AUC^eff0-168 h (rabbit eyes (pupil size) [9]; conc. 0.4%): 28 ± 2; Rmax (%) (rabbit eyes (pupil size) [9]; conc. 0.4%): 11.01 ± 3.81%
4 | COC(=O)C[N+]1(C)CCC(OC(=O)[C@](O)(c2ccccc2)C2CCCC2)C1.[Br-] (stereo partly drawn) | 57 min and 56.7 ± 6.1 min | 12.4 ± 1.4 × 10^−3 min^−1 | 9.00 ± 0.06 | (0.83 ± 0.01) | 20 min | 34.5 ± 3.2 × 10^−3 min^−1 | 1.4 ± 0.2 times | 8.89 ± 0.04 | (0.83 ± 0.11) | 9.52 ± 0.01 | (0.83 ± 0.01) | 752 ± 342 | 52.92 ± 13.41% | 875 ± 197 | 57.08 ± 11.66% | 8.87 ± 0.05 | – | – | (1.10 ± 0.11) | pKi, range over subtypes M1-M4 [4]: 8.9-9.5; duration of mydriatic activity (rabbit eyes (pupil size) [7]): 24 h
5 | CCOC(=O)C[N+]1(C)CCC(OC(=O)[C@](O)(c2ccccc2)C2CCCC2)C1.[Br-] (stereo partly drawn) | 86 min and 86.4 ± 1.2 min | 8.0 ± 0.1 × 10^−3 min^−1 | 8.74 ± 0.02 | (1.09 ± 0.15) | 34 min and 33.8 ± 4.8 min | 20.9 ± 3.0 × 10^−3 min^−1 | 1.1 ± 1.1 times | 8.67 ± 0.16 | (0.86 ± 0.08) | 8.85 ± 0.13 | (0.89 ± 0.02) | 1170 ± 308 | 53.96 ± 13.27% | 1532 ± 526 | 56.04 ± 11.69% | 8.84 ± 0.34 | – | – | (0.92 ± 0.01) | pKi, range over subtypes M1-M4 [4]: 8.7-8.9; duration of mydriatic activity (rabbit eyes (pupil size) [7]): < 48 h; pA2 [10]: 8.55±0.16
6 | C[N@@+]1(CC(=O)[O-])CC[C@@H](OC(=O)[C@@](O)(c2ccccc2)C2CCCC2)C1 | – | – | 5.54 ± 0.16 | (1.02 ± 0.12) | – | – | 0.8 ± 0.1 times | 5.87 ± 0.04 | (1.06 ± 0.05) | 5.79 ± 0.12 | (0.88 ± 0.04) | – | – | – | – | 5.65 ± 0.06 | 0 ± 0 | 0.00 ± 0.00% | (1.24 ± 0.07) | AUC^eff0-168 h (rabbit eyes (pupil size) [9]; conc. 0.4%): 11 ± 1; Rmax (%) (rabbit eyes (pupil size) [9]; conc. 0.4%): 7.44 ± 0.60%
7 | CCCCCCCCOC(=O)C[N@@+]1(C)CC[C@H](OC(=O)[C@](O)(c2ccccc2)C2CCCC2)C1 | – | – | – | – | – | – | – | – | – | – | – | – | – | – | – | – | – | – | – | Hill slope [11]: −1.22 ± 0.11; Ki [11]: 60 nM
8 | CCCCCCCCOC(=O)C[N+]1(C)CCC(OC(=O)C(O)(c2ccccc2)C2CCCC2)C1 (stereo not drawn) | – | – | – | – | – | – | – | – | – | – | – | – | – | – | – | – | – | – | – | Hill slope [11]: −1.26 ± 0.06; Ki [11]: 68 nM
